These results are taken from patent publication US8012982B2, “Modulators of HCV replication” (priority 2004, dated 2011).

As a reminder, the pIC50 is the negative decadic logarithm of the IC50, by convention in mol/L.

What all share (assay): microbe, parasite or virus in culture
Holding throughout (type): cell-based

Test [1] relates to pHCVNeo17.m52 replicon. The note with it: Hepatitis C virus; replicon pHCVNeo17.m52: E1202G, K@2039, T2216I; read-out: Cmpd Ib IC50. A general note: A replicon is a self-replicating genome or part of one, used to study replication in cells.
In test [2] the test system is pHCVNeo17.m47 replicon. The note with it: Hepatitis C virus; replicon pHCVNeo17.m47: E1202G, K@2039, H2057R; read-out: Cmpd Ib IC50.
For test [3], the system named is pHCVNeo17.m32 replicon. The note with it: Hepatitis C virus; replicon pHCVNeo17.m32: K@2039, A2064V; read-out: Cmpd Ib IC50.
Test [4] has as its system pHCVNeo17.m46 replicon. The note with it: Hepatitis C virus; replicon pHCVNeo17.m46: E1202G, K@2039, H2057R, A2064V; read-out: Cmpd Ib IC50.
The test system of test [5] is pHCVNeo17.m44 replicon. The note with it: Hepatitis C virus; replicon pHCVNeo17.m44: E1202G, K@2039, A2064V; read-out: Cmpd Ib IC50.
Test [6] deals with pHCVNeo17.m65 replicon. The note with it: Hepatitis C virus; replicon pHCVNeo17.m65: E1202G, K@2039, R2129W; read-out: Cmpd Ib IC50.
The subject of test [7] is pHCVNeo17.m33 replicon. The note with it: Hepatitis C virus; replicon pHCVNeo17.m33: K@2039, H2057R; read-out: Cmpd Ib IC50.
Test [8] deals with pHCVNeo17.m22 replicon. The note with it: Hepatitis C virus; replicon pHCVNeo17.m22: E1202G, K@2039, S2404P; read-out: Cmpd Ib IC50.
The subject of test [9] is pHCVNeo17.m10 replicon. The note with it: Hepatitis C virus.

Structures are written as SMILES. pIC50: −log10 of the molar value. Like-named read-outs stand apart in the source and are kept apart here.

As to `CC(C)(C)OC(=O)N1CCN(c2ccc(C(=O)Nc3ccc(O)cc3)cc2)CC1` [Example 101, tert-butyl 4-(4-{[(4-hydroxyphenyl)amino]carbonyl}phenyl)piperazine-1-carboxylate], the pIC50 was 7.40 in test [1]; 7.22 in [2]; less than 5.70 in test [3]; less than 5.70 in test [4]; less than 5.70 in test [5]; less than 5.70 in test [6]. The pIC50 was 7.51 in [7]; 7.42 in test [8]; 7.00 in test [9] (96 h, subgenomic pHCVNeo17.m10, Con1, E1202G + K@2039, 10AIFN cells, four days after transfection, read-out: IC50); 7.00 in test [9] (replicon pHCVNeo17.m10: E1202G, K@2039, read-out: Cmpd Ib IC50).
